{"source": "ChEMBL document CHEMBL2040715", "about": "“Discovery of a Potent HIV Integrase Inhibitor that Leads to a Prodrug with Significant anti-HIV Activity” (ACS Med Chem Lett, 2011)", "tested_on": "Human immunodeficiency virus 1", "test": "Ratio of EC50 for HIV1 to IC50 for HIV1 integrase-mediated strand transfer", "data": [{"smiles": "O=C(O)/C(O)=C/C(=O)c1cc(Cc2ccc(F)cc2F)cn(Cc2ccccc2F)c1=O", "values": [{"measurement": "Ratio", "value": "> 2"}]}]}
